The results in this text go back to US20250171743A1, “HUMAN TOOTH ORGANOIDS” (Katholieke Universiteit Leuven, priority 2022, published 2025).

The test deals with dental follicle-derived organoids. Nature of the test: Organoid growth with EGFR blocking added at passaging. Format: cell-based, human. The following applies: day 14, smaller organoids (FIG. 9b). The text has this:
To establish organoids from primary tissues, supplementation of EGF is generally found quintessential. […] In vivo, it is known that elevated EGF levels in the epithelial cell rests of Malassez compartment (as, for instance, occurring upon tooth movement, infection or trauma) activates epithelial cell rests of Malassez cell proliferation [Davis (2018) J. Vet. Dent. 35, 290-298]. […] It has been proposed that EMT induction in the epithelial cell rests of Malassez (as, for instance, occurring upon damaging tooth impact) enables the cells to migrate and eventually contribute to regeneration of neighbouring tissues [Davis (2018) J. Vet. Dent. 35, 290-298].
The dissociated dental follicle cell material was resuspended in a mixture of serum-free defined medium (SFDM; Thermo Fisher Scientific; Table 4) and growth factor-reduced Matrigel (Corning) in a 30:70 ratio, which was plated in 48-well plates at 20,000 cells per 20 μL drop. After solidification, tooth organoid medium (TOM; Table 1), unless indicated otherwise, was supplemented. ROCK inhibitor (RI; 10 μM; Merck Millipore) was added the first day of seeding (or passaging). Organoid cultures were kept at 37° C. in a 1.9% CO2 incubator, and medium was refreshed every 2 to 3 days, each time supplemented with fungizone (0.1%).
The organoid cultures were passaged every 10 to 14 days. […]

With cetuximab, the organoid growth entry was “compromised organoid growth”.
